One test deals with T1, CB1R (Rattus norvegicus, UniProt P20272).
T1 construct: Crude membrane fractions were prepared from the brain; from tissue; host or cells: Wistar rat whole brain, crude membrane fraction
The test is described as follows: Ligand stimulated [35S]GTPγS binding assay in rat brain membranes. It is filed as biochemical. The note with it: read-out: [35S]GTPγS stimulation Emax. As for the experimental part: Our novel chemical compounds were tested in vitro for their binding ability, efficacy, and potency on CB1R in rat brain membrane homogenate (Table 2 and SI, Figure S1). CB1Rs are the most abundant G-protein coupled receptors in the rodent and mammalian brain; therefore, this is an appropriate model to characterize our ligands in a more physiological system.
In Vitro Biological Assays
Preparation of Brain Membrane Homogenates
Wistar rats were locally bred and handled according to the EU Directive 2010/63/EU and to the Regulations on Animal Protection (40/2013. (II. 14.) Korm. r.) of Hungary. Crude membrane fractions were prepared from the brain. […]
was terminated by diluting the samples with an ice-cold wash buffer (50 mM of Tris-HCl, 2.5 mM of EGTA, 5 mM of MgCl2, 0.5% fatty acid free BSA, pH 7.4), followed by repeated washing and rapid filtration through Whatman GF/B glass fiber filters (Whatman Ltd., Maidstone, UK) pre-soaked with 0.1% polyethyleneimine (30 min before the filtration). […] Filters were air-dried and immersed into Ultima Gold MV scintillation cocktail, and then radioactivity was measured with a TRI-CARB 2100TR liquid scintillation analyzer (Packard, Perkin Elmer, Waltham, MA, USA). […]
mM of NaCl, 3 mM of MgCl2 and 1 mM of EGTA in a 50 mM Tris-HCl buffer (pH 7.4) for 60 min at 30 °C. Basal [35S]GTPγS binding was measured in the absence of ligands and set as 100%. […]

Amino acid sequences for entries named in this document (tags omitted).
UniProt P20272, whole entry: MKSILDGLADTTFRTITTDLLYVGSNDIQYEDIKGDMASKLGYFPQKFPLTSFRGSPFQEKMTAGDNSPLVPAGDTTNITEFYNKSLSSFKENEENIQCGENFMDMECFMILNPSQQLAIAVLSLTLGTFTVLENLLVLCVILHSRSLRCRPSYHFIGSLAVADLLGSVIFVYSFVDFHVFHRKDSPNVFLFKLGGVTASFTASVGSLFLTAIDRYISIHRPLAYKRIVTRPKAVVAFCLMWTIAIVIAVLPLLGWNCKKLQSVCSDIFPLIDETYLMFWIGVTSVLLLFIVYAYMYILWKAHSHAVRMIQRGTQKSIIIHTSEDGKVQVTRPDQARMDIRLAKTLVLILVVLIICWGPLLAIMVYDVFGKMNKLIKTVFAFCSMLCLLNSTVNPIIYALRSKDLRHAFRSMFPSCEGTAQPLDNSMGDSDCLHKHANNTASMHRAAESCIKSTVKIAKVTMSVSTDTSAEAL

The test system of the next test is mice. The following applies: 100 μg in 20 μL s.c., 15 min before formalin. The procedure: testing. […] Then, the compounds were
Compounds were prepared by freshly diluting
Then, these solutions were injected for
The total time the animal spent licking or biting its paw was calculated.
Then, paw edema was calculated as formerly
Paw volume was quantified using a
Data Analysis and Statistics
Statistically significant differences between
Data were considered statistically
The data and statistical analyses respected the recommendations on experimental design and analysis.

On to `Cc1c(C(=O)NN2CCCCC2)nn(-c2ccc(Cl)cc2Cl)c1-c1ccc(Cl)cc1` [rimonabant, N-(piperidin-1-yl)-5-(4-Cl-phenyl)-1-(2,4-di-Cl-phenyl)-4-methyl-1H-pyrazole-3-carboxy-amide], for which the Emax on CB1R amounted to 38 ± 5%. In the case of `CNC(=O)[C@@H](NC(=O)c1nn(-c2ccc(Cl)cc2)c(-n2cccc2)c1C)C(C)(C)C` [Compound 34, RS2691-tLeu-NHCH3], the “formalin test, late phase (licking activity 15 to 40 min)” value in the test with mice is reported as “less efficacious”.

Values taken from paper PMC10108392, “Rimonabant-Based Compounds Bearing Hydrophobic Amino Acid Derivatives as Cannabinoid Receptor Subtype 1 Ligands” (ACS Medicinal Chemistry Letters, 2023).
